According to patent US6387881B1, “Inhibitors and substrates of thrombin” (priority 1992, dated 2002):

Target: human α-thrombin (Homo sapiens, UniProt P00734)
Format: biochemical
Description: The inhibition of human α-thrombin was determined by the inhibition of the enzyme catalyzed hydrolysis of three different concentrations of the chromogenic substrate S-2238.
200 μl of sample or buffer and 50 μl of S-2238 were incubated at 37° C. for 1 min and 50 μl of human α-thrombin (0.25 NIHu/ml) was added. The initial rate of inhibited and uninhibited reactions were recorded at 405 nm. The increase in optical density was plotted according to the method of Lineweaver and Burke. The Km and apparent Km were determined and Ki was calculated using the relationship: [formula]

SMILES: N=C(N)NCCCC(NC(=O)C1CCCN1C(=O)C(N)Cc1cccc2ccccc12)C(=O)CCC(=O)N1CCCCC1 (mixture of isomers) [Compound 9, D,L-α-Nal-Pro-Arg--k--Gly-Pip]
- Ki: 13.5 µM
